Assay results reported in ChEMBL document CHEMBL3352598, “Synthesis, pharmacological evaluation and molecular modeling studies of triazole containing dopamine D3 receptor ligands” (Bioorg Med Chem Lett, 2015).

Organism: Homo sapiens
Assay: Selectivity index, ratio of Ki for D4 receptor to Ki for human D3 receptor

Ratio Ki: 335
SMILES: COc1ccccc1N1CCN(CCCCNC(=O)c2ccc(CCF)cc2)CC1
